Tests used:
[1] = Plasma stability of GLP-1 peptide complex (remaining rate in rat plasma, HPLC/MS); format: in vitro ADME, SD rats; details: 0.5 μmol/L, 37° C., relative to 0 hour = 100%
[2] = target: T1, endogenous GLP-1 receptor (Mus musculus, UniProt O35659); assay: Insulin secretion capacity of GLP-1 peptide complex in MIN 6 cells; format: cell-based; details: read-out: EC50 value (nM), insulin secretion capacity, 15 mM glucose, concentration for 50% of maximum activity of native GLP-1 at 1000 pM;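 note: insulin released into the supernatant of MIN 6 cultures quantified by ELISA, absorbance read at 450 nm with 620 nm reference after substrate addition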
T1 construct: expressing an endogenous GLP-1 receptor; endogenous in cells; host or cells: MIN 6 mouse insulinoma cells (obtained from a person)
T1 sequence (O35659 22-463): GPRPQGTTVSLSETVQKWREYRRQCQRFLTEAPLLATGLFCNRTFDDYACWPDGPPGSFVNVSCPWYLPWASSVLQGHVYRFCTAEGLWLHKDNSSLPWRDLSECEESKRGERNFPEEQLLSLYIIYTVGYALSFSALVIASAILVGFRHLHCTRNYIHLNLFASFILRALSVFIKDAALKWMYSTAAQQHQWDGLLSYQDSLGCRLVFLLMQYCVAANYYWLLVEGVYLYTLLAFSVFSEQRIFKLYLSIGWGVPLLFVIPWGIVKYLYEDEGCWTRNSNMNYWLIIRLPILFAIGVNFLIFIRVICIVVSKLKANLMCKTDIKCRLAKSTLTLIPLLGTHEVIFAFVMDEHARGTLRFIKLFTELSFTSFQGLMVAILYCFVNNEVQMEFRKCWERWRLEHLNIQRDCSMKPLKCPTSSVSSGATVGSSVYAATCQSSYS

Substance	Remaining rate in plasma after 8 hours (%) [1] [%]	Remaining rate in plasma after 48 hours (%) [1]	Remaining rate in plasma after 48 hours (%) ([1]; 2880 min)	EC50 [2] [nM]
GLP-1(7-36)-NH2 [Comparative Example 1, reference compound]	0	completely decomposed	0	
[Ser8]-GLP-1(7-35)-GAm(28-44)-NH2 [Example 14]	107	116%		
[Ser8]-GLP-1(7-35)-GAm(32-44)-NH2 [Example 10]	96	68%		
[Ser8]-GLP-1(7-35)-GAm(38-42)-NH2 [Example 1]	96	71%		0.5
[Ser8]-GLP-1(7-35)-GAm(38-44)-NH2 [Example 2]	97	95%		
[Ser8]-GLP-1(7-36)-NH2 [Comparative Example 2, reference compound]	17	completely decomposed	0	

Source: patent publication US20130123460A1, “PEPTIDE FOR IMPROVING BIOSTABILITY OF BIOACTIVE SUBSTANCE, AND BIOACTIVE SUBSTANCE HAVING IMPROVED BIOSTABILITY” (priority 2010, published 2013)
